Test results taken from ChEMBL document CHEMBL4808171, “Structure-Activity Relationship Study and Biological Evaluation of 2-(Disubstituted phenyl)-indole-5-propanoic Acid Derivatives as GPR40 Full Agonists” (J Med Chem, 2021).

Chains of the proteins cited; added tags and fusions are not shown. Lines headed by an entry give the natural chain unless they say otherwise; changes in a name come on top.
UniProt P37231: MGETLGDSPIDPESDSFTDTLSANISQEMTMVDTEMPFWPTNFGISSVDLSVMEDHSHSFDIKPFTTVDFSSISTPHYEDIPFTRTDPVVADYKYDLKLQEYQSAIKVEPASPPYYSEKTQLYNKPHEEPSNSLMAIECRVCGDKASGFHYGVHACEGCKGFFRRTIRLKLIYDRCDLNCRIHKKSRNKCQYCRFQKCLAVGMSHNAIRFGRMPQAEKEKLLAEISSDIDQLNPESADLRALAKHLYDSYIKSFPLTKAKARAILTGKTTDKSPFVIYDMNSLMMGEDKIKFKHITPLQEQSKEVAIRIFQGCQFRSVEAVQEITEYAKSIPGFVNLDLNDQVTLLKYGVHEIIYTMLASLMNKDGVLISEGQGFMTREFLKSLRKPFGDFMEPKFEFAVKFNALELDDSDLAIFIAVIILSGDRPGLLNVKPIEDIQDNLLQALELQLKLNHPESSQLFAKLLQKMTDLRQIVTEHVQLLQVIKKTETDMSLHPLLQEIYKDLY
UniProt Q76JU9, whole entry: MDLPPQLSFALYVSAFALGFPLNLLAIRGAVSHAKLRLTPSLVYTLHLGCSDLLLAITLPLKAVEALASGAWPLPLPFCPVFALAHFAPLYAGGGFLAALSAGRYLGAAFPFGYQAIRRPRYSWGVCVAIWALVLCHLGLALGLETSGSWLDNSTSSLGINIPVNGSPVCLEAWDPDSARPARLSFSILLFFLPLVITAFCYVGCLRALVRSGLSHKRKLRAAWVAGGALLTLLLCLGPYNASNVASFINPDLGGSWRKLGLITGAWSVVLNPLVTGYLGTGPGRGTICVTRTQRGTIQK

Tests used:
[1] = target: Peroxisome proliferator-activated receptor gamma (Homo sapiens, UniProt P37231); assay: Agonist activity at human PPARgamma expressed in CHO cells assessed as increase in receptor transcriptional activity at 1 uM incubated for 24 hrs by dual luciferase reporter gene assay relative to rosiglitazone; assay type: cell-based
[2] = target: Free fatty acid receptor 1 (Mus musculus) (UniProt Q76JU9); assay: Agonist activity at GPR40 in mouse MIN6 cells assessed as fold increase in 17 mM glucose-mediated insulin secretion at 1 to 10 uM incubated for 2 hrs by ELISA relative to control; assay type: functional, cell-based; settings: filed as positive allosteric modulator, dose 1-10 µM

Emax ([1]; filed as agonist) [%] | Emax [1] [%] | fold change (FC) [2] | SMILES
59.9 | – | – | Cc1c(Cl)cccc1-c1cc2cc(CCC(=O)O)ccc2[nH]1
– | 15.2 | 1.12 | Cc1ccc(C)c(-c2cc3cc(CCC(=O)O)ccc3[nH]2)c1
